Laboratory results: patent US7291478B1
Some compounds may have been tested in ways that are not shown here.

Chains of the proteins cited; added tags and fusions are not shown.
UniProt Q45087, whole entry: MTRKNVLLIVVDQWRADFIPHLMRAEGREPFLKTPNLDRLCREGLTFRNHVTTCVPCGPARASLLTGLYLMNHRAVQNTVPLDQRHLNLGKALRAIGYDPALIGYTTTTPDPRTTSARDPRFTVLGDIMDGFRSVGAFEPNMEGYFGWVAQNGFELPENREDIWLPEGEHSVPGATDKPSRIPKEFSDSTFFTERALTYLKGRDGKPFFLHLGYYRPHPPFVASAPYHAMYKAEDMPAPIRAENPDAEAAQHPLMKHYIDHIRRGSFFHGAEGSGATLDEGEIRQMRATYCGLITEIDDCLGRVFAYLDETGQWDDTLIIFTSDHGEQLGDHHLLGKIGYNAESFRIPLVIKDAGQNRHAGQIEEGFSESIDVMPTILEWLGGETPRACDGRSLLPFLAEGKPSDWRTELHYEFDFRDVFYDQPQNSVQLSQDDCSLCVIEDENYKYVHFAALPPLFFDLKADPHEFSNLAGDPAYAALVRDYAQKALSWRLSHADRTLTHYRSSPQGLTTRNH

Target: phosphonate ester hydrolase (PEH) (Trinickia caryophylli, UniProt Q45087)
Settings: synthetic phosphonate ester 10 mM, 50 mM BTP pH 9.0, 1 mM MnCl2, 2 μl PEH extract, about 30° C.; GC-FPD of TMS derivatives

Q: With Pinacolyl phenylphosphonate as the substance, how does the “Degraded by PEH” value read?
A: Its value is “YES”.
